According to article PMC8038090, “Xanthine Oxidase Inhibitors from Filipendula ulmaria (L.) Maxim. and Their Efficient Detections by HPTLC and HPLC Analyses” (Molecules, 2021):
Where two headings read alike, the source gives them in different places.

By UniProt entry, the sequences of proteins in these tests, tags left out. Residues count along the entry.
UniProt P80457, 2-1332 limits assumed: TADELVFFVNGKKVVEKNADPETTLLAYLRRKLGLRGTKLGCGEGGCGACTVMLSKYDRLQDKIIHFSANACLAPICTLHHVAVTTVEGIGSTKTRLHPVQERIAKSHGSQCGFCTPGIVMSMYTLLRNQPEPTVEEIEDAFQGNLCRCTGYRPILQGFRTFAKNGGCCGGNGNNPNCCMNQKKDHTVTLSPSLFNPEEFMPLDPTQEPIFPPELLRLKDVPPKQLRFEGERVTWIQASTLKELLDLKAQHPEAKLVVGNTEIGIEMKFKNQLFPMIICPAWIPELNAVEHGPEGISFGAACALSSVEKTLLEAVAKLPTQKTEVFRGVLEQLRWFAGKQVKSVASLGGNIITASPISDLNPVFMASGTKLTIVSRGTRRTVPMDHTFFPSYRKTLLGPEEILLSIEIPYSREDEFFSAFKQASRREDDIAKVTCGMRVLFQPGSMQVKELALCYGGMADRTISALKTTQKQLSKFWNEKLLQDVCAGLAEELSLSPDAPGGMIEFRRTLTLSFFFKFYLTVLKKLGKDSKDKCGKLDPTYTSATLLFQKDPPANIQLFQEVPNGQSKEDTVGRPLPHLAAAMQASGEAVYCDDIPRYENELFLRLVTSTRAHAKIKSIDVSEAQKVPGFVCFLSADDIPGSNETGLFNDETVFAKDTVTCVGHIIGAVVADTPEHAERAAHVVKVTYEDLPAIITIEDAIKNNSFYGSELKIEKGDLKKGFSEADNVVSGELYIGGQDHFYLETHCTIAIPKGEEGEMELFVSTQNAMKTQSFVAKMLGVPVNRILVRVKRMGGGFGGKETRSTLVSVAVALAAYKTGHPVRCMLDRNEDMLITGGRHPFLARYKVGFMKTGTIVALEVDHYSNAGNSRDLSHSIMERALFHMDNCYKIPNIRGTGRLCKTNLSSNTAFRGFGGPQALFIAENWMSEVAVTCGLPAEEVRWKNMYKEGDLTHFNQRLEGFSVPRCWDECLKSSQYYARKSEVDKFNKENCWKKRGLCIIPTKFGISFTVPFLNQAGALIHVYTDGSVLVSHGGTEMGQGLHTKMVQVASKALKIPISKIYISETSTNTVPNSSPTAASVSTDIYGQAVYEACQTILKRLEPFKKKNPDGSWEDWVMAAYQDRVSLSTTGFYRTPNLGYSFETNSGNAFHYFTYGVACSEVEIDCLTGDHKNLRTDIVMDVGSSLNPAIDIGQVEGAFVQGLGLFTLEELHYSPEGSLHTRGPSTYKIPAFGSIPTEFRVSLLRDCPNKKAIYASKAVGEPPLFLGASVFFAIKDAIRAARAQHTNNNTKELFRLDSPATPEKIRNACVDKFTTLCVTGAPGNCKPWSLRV

Molecular target: xanthine oxidase (XO) (Bos taurus, UniProt P80457)
Test: Xanthine oxidase inhibitory activity by UV spectroscopy (uric acid formation at 293 nm)
Type: biochemical
Settings: xanthine 56 µM, XO 0.01 U/mL, 25 °C
Experimental: Inhibition of XO was conducted according to the procedure described by Sowndhararajan et al., with slight modifications. […] Prior to the addition of XO solution in the mixture, all the components were incubated at 25 °C in the dark for 5 min. […] The enzymatic activity assay without extract was defined as maximum relative activity, and the percentage of inhibition was calculated according to the method of Yan et al. IC50 values were determined using linear regression and are expressed in µg/mL of plant extract ± standard deviation. All measurements were performed in triplicate (n = 3).

- IC50 (n = 3, read-out: IC50 (µM), XO inhibition): 12.9 ± 0.6 µM
- IC50 (n = 3, read-out: IC50 (µg/mL), XO inhibition (converted)): 12.9 µM
Structure (SMILES): O=c1c(O)c(-c2ccc(O)cc2)oc2cc(O)cc(O)c12 [Kaempferol]
